Target: H3 histamine receptor (Homo sapiens, UniProt Q9Y5N1)
Test: Intrinsic activity at H3R, Aequoscreen assay
Type: cell-based
Procedure: Intrinsic activity studies were performed using two methods, Aequoscreen and LANCE Ultra cAMP assays, according to the manufacturer of the ready-to-use cells with stable expressions of the H3 histamine receptor (Perkin Elmer).
The Aequoscreen technology uses recombinant cell lines with stable co-expression of apoaequorin and a GPCR as a system to detect activation of the receptor, following the addition of an agonist, via the measurement of light emission. For the measurement, cells (frozen, ready to use) were thawed and resuspended in 10 mL of assay buffer containing 5 μM of coelenterazine h. The cell suspension was then placed in a 10 mL Falcon tube, fixed on a rotating wheel, and incubated overnight at RT° in the dark. Cells were diluted with assay buffer at 5000 cells/20 µL. Agonistic ligands 2 × (50 μL/well), diluted in assay buffer, were prepared in 1/2 area white polystyrene plates, and 50 μL of cell suspension was dispersed on the ligands using the injector. The light emission was recorded for 20 s. Cells were incubated with antagonist for 15 min at RT°. Then, 50 µL of agonist (final concentration equal to 3 × EC80) was injected into the mixture of cells and antagonist and light emission was recorded for 20 s.

Chains of the proteins cited; added tags and fusions are not shown. Lines headed by an entry give the natural chain unless they say otherwise; changes in a name come on top.
UniProt Q9Y5N1: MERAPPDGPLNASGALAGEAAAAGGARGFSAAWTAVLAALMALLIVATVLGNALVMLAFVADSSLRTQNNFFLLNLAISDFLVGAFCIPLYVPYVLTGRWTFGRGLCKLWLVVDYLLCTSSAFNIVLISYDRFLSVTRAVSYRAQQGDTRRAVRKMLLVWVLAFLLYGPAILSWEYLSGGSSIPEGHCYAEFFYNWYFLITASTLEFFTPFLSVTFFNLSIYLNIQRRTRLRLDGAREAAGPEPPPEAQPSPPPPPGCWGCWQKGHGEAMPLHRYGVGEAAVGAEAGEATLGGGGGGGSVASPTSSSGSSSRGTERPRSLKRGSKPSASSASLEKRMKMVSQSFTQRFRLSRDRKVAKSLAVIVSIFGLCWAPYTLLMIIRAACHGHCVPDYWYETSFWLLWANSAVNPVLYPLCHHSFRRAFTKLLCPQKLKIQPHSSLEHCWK

NC(=NCc1ccc(Cl)cc1)SCCCc1cnc[nH]1 [Clobenpropit, clobenpropit, reference compound]
IC50: 1.1 ± 0.3 nM

— publication PMC9266460, “KSK-74: Dual Histamine H3 and Sigma-2 Receptor Ligand with Anti-Obesity Potential” (International Journal of Molecular Sciences, 2022)
